The list shows a part of the results, in another mix than the full data. Activity calls are given as the source filed them.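 Rule for the calls: active = binding response more than 3 SD above or below the average of its plate-row segment, actives on both sides; inconclusive = wells at one plate position flagged as instrument error; inactive = the rest.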

Chains of the proteins cited; added tags and fusions are not shown. Lines headed by an entry give the natural chain unless they say otherwise; changes in a name come on top.
UniProt Q99759: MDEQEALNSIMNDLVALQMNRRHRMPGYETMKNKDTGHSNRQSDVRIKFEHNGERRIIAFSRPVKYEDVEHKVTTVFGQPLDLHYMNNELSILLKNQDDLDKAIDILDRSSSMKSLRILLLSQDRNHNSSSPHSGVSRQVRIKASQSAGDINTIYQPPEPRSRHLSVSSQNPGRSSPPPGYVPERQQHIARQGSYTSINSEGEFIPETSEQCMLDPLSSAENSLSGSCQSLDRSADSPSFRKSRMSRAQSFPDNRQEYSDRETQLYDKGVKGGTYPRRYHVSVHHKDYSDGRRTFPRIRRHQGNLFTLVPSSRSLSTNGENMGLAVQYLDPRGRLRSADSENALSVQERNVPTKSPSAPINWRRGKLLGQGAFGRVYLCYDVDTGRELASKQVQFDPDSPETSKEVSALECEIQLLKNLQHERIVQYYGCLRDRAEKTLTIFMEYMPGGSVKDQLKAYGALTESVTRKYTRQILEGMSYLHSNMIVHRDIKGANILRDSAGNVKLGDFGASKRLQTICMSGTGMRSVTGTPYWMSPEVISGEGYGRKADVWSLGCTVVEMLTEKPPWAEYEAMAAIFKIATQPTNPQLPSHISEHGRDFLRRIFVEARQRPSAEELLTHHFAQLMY

The target of this assay is Mitogen-activated protein kinase kinase kinase 3 (Homo sapiens) (UniProt Q99759). Briefly: modulators of MEKK3-MEK5 PB1 binding, primary screen, biochemical, wildtype MEKK3, multiplex bead flow cytometry, Alexa488-MEK5 (AID 1529).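 Note: Alexa488 bead fluorescence after subtracting the streptavidin-only scavenger bead signal.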 The following applies: bead-based flow cytometry, Alexa488-MEK5 binding to MEKK3; at 10 µM; actives lie on both sides; 0 = blocked by unlabeled MEK5, 100 = vehicle. (In general: Flow cytometry measures light scatter and fluorescence of single cells or particles in a stream.)
On to `Nc1cc(N)c2nonc2c1[N+](=O)[O-]`, for which the binding response (% of control) was inactive: 114%. Turning to `CC(C)CC(=O)NC(Sc1ccc(Cl)cc1)C(Cl)(Cl)Cl` (stereo unspecified), the binding response (% of control) was inactive: 90%. Regarding `Oc1ccccc1CNc1ccccn1`, the binding response (% of control) is inactive: 100%. For the compound `O=C(NC(Sc1ccncn1)C(Cl)(Cl)Cl)c1ccccc1` (stereo unspecified), the binding response (% of control) was inactive: 100%. `Cc1c2non([O-])c-2c(C)[n+](=O)[n+]1[O-]`: the binding response (% of control) was inactive: 97%.

Take `COc1ccccc1OP(=O)(Nc1ccc(C)cn1)Oc1ccccc1OC`: the binding response (% of control) is inactive: 113%.

Consider `Cc1ccc(OP(=O)(Nc2nccs2)Oc2ccc(C)cc2)cc1`, for which the binding response (% of control) is inactive: 96%. In the case of `CN1CCCC(OC(=O)C(c2ccccc2)c2ccccc2)C1` (stereo unspecified), the binding response (% of control) is inactive: 85%. On to `Clc1ccc(Cl)c(NC2=NCC(CBr)S2)c1` (stereo unspecified), for which the binding response (% of control) was inactive: 105%.

For `NC(=O)c1cc([N+](=O)[O-])cc([N+](=O)[O-])c1N`, the binding response (% of control) is inactive: 91%.

On to `CCN(N=Nc1nonc1N)c1nonc1N`, for which the binding response (% of control) was inactive: 95%.

As for `Nc1cccc2ccc([As](=O)(O)O)cc12`, the binding response (% of control) was inactive: 96%. In the case of `O=[N+]([O-])c1cc([N+](=O)[O-])c(CCN2CCOCC2)c([N+](=O)[O-])c1` it was inactive: 101%; in that of `Cc1cc(SC(NC(=O)c2ccc(F)cc2)C(Cl)(Cl)Cl)ncn1` (stereo unspecified), inactive: 97%. For the compound `CCOP(=O)(Nc1ccccc1)OCC`, the binding response (% of control) was inactive: 100%. For `Cc1ccc(NP(=O)(Oc2ccccc2F)Oc2ccccc2F)nc1`, the binding response (% of control) is inactive: 109%. Take `CN(C(=O)Cc1ccc(Cl)c(Cl)c1)[C@H]1CCCC[C@@H]1N1CCCC1`: the binding response (% of control) was inactive: 107%. Regarding `CC(=O)Nc1ccc([As](=O)(O)O)cc1`, the binding response (% of control) is inactive: 98%.

Consider `O=C(O)c1ccccc1[As](=O)(O)O`, for which the binding response (% of control) is inactive: 102%. `O=P(Nc1nc2ccc(Cl)cc2s1)(c1ccccc1)c1ccccc1`: the binding response (% of control) is inactive: 95%. For the compound `O=[N+]([O-])c1cccc(NC2=NCC(CBr)S2)c1` (stereo unspecified), the binding response (% of control) was inactive: 96%. Take `O=C(O)CNc1ccc([As](=O)(O)O)cc1`: the binding response (% of control) is inactive: 97%. With `CC(C)(C)C(=O)NC(Sc1ccncn1)C(Cl)(Cl)Cl` (stereo unspecified), the binding response (% of control) was inactive: 92%. For the compound `O=[N+]([O-])c1ncn(CCn2ncnc2[N+](=O)[O-])n1`, the binding response (% of control) is inactive: 104%. For the compound `O=C(Nc1cc([As](=O)(O)O)ccc1O)c1ccccc1`, the binding response (% of control) was inactive: 88%.

As for `CC(C)=N/N=C(\N)N[N+](=O)[O-]`, the binding response (% of control) was inactive: 97%. Turning to `CN(C)C(=O)OCCc1n(C)cc[n+]1C`, the binding response (% of control) is inactive: 92%. As to `CC1CCN(C(=O)Oc2c(Cl)cc(Cl)c3cccnc23)CC1`, the binding response (% of control) was inactive: 93%.

As to `Nc1ccc([As](=O)(O)c2ccc(N)cc2)cc1`, the binding response (% of control) is inactive: 104%. For the compound `C[N+]1=C2C=CC=CC=C2SC12C([N+](=O)[O-])=CC([N+](=O)[O-])=C[C-]2[N+](=O)[O-]` (stereo unspecified), the binding response (% of control) is inactive: 81%. In the case of `CCN(/C(=N/P(=O)(N1CCOCC1)N1CCOCC1)N1CCOCC1)c1ccc(OC)cc1` it was inactive: 117%; in that of `O=[N+]([O-])c1cccc2n[nH]nc12`, inactive: 102%; in that of `CC(=O)N1C2C3N(C(C)=O)C1C1N(C(C)=O)C(C(N1C(C)=O)N3C(C)=O)N2C(C)=O`, inactive: 103%. As to `Cc1ccc(NP(=O)(Oc2ccccc2)Oc2ccccc2)nc1`, the binding response (% of control) was inactive: 65%. Regarding `CCc1nc2c(n1)c1c(non1O)c1c2no[n+]1[O-]`, the binding response (% of control) is inactive: 101%. As for `O=[N+]([O-])c1cc([N+](=O)[O-])c(CCNc2ccccc2)c([N+](=O)[O-])c1`, the binding response (% of control) was inactive: 100%. On to `COc1ccc(C2=NCC(CBr)S2)cc1` (stereo unspecified), for which the binding response (% of control) was inactive: 94%.

Take `c1nnnn1CCn1cnnn1`: the binding response (% of control) is inactive: 107%. With `CC(C)C(=O)NC(Sc1ccccc1)C(Cl)(Cl)Cl` (stereo unspecified), the binding response (% of control) is inactive: 88%. For the compound `O=P(Nc1nccs1)(c1ccccc1)c1ccccc1`, the binding response (% of control) was inactive: 106%.

For the compound `C(Cc1nn[nH]n1)Cc1nn[nH]n1`, the binding response (% of control) is inactive: 99%. On to `Nc1ccc([As](=O)(O)c2ccc([N+](=O)[O-])cc2)cc1`, for which the binding response (% of control) is inactive: 99%. On to `O=C(OC1CN2CCC1CC2)c1cccc(Cl)c1` (stereo unspecified), for which the binding response (% of control) is inactive: 106%. In the case of `O=[N+]([O-])c1ccc(O)c(/C=N/Nc2ccc([N+](=O)[O-])cc2[N+](=O)[O-])c1` it was inactive: 104%; in that of `CC(=O)NC(SC(=S)N(C)C)C(Cl)(Cl)Cl` (stereo unspecified), inactive: 94%; in that of `O=[N+]([O-])c1ncn(CCn2cnc([N+](=O)[O-])n2)n1`, inactive: 100%. `O=[As](O)(c1ccccc1)c1ccc(O)cc1`: the binding response (% of control) is inactive: 102%. Turning to `O=P(Nc1nc2ccccc2s1)(c1ccccc1)c1ccccc1`, the binding response (% of control) was inactive: 103%. Consider `C[C@H]1OP(=O)(Oc2ccccc2)[C@H](O)[C@H](O)[C@H]1N=[N+]=[N-]` (stereo partly specified), for which the binding response (% of control) is inactive: 98%. In the case of `O=P(Nc1ccccn1)(c1ccc(Br)cc1)c1ccc(Br)cc1`, the binding response (% of control) is inactive: 102%. `CN(C)C1(CNC(=O)c2ccc(Cl)c(S(N)(=O)=O)c2)CCCCC1`: the binding response (% of control) is inactive: 103%.

As for `Cc1ccccc1OP(=O)(Nc1ccccn1)Oc1ccccc1C`, the binding response (% of control) was inactive: 88%. As to `O=c1c2cc([N+](=O)[O-])ccc2[nH]c2c([N+](=O)[O-])cc([N+](=O)[O-])cc12`, the binding response (% of control) is inactive: 96%. Turning to `CN(C)C(=O)Oc1noc2ccccc12`, the binding response (% of control) was inactive: 97%. With `COC(=O)c1cc2c(s1)N=C(c1ccccc1)N(C)P2(=O)N1CCOCC1` (stereo unspecified), the binding response (% of control) is inactive: 106%. For `CC(=O)NC(SC(=S)N(CC(C)C)CC(C)C)C(Cl)(Cl)Cl` (stereo unspecified) the value was inactive: 105%; for `Cc1ccc(OP(=O)(Nc2ccccn2)Oc2ccc(C)cc2)cc1`, inactive: 80%. As to `O=C(OC1CN2CCC1CC2)c1ccccc1` (stereo unspecified), the binding response (% of control) is inactive: 97%. `CCC(=O)N1C2C3N(C(=O)CC)C1C1N(C(=O)CC)C(C(N1C(=O)CC)N3C(=O)CC)N2C(=O)CC`: the binding response (% of control) is inactive: 104%. In the case of `CCNC(=S)/N=C(\N)N[N+](=O)[O-]`, the binding response (% of control) is inactive: 105%. With `O=C(NC1CCS(=O)(=O)C1)NP(=S)(Oc1ccccc1)Oc1ccccc1` (stereo unspecified), the binding response (% of control) is inactive: 108%. In the case of `c1ccc(-c2nn[nH]n2)c(-c2nn[nH]n2)c1` it was inactive: 89%; in that of `Cc1ccc(NP(=O)(Oc2cccc(C)c2)Oc2cccc(C)c2)nc1`, inactive: 84%. Consider `CCOC(=O)NC(Sc1ccccc1)C(Cl)(Cl)Cl` (stereo unspecified), for which the binding response (% of control) is inactive: 102%. In the case of `CC(=O)Nc1ccc([As](=O)(O)O)c(O)c1` it was inactive: 91%; in that of `CC(=O)Nc1ccc(Oc2c([N+](=O)[O-])cc([N+](=O)[O-])cc2[N+](=O)[O-])cc1`, inactive: 110%.
